The text below walks through data of PMC10402266, “Reaction hijacking inhibition of Plasmodium falciparum asparagine tRNA synthetase” (Research Square, 2023).

The target of this experiment is T1, HsAsnRS (human asparaginyl tRNA synthetase) (Homo sapiens, UniProt O43776).
T1 construct: gene NARS1; recombinant full-length HsAsnRS
T1 sequence (O43776 1-548): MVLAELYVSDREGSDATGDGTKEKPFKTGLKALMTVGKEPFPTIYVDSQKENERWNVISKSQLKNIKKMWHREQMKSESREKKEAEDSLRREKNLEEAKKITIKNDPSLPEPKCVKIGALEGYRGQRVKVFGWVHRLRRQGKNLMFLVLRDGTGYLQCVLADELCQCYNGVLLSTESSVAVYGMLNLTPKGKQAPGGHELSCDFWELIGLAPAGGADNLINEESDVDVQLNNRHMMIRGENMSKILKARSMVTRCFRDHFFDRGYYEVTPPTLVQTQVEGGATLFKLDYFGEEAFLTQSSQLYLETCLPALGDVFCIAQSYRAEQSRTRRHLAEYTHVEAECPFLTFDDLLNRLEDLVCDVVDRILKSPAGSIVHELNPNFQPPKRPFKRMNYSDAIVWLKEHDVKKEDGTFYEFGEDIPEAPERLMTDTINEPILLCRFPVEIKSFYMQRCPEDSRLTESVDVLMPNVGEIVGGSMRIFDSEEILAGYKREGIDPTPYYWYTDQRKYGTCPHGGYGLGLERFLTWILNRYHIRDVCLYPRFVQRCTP
Briefly: ATP consumption assay of recombinant enzyme. The experiment is classed as biochemical.

`Nc1ncnc2c1ncn2[C@@H]1O[C@H](COS(N)(=O)=O)[C@@H](O)[C@H]1O` [AMS, adenosine 5’-sulfamate]: the IC50 was 25 µM.

The term IC50 denotes the concentration that inhibits the measured activity by half.
